EP4731682A1 (dated 2026)

Sequences of proteins named here, by UniProt entry; tags and fusion partners are left off. Residues count along the entry.
UniProt Q08722, 19-323: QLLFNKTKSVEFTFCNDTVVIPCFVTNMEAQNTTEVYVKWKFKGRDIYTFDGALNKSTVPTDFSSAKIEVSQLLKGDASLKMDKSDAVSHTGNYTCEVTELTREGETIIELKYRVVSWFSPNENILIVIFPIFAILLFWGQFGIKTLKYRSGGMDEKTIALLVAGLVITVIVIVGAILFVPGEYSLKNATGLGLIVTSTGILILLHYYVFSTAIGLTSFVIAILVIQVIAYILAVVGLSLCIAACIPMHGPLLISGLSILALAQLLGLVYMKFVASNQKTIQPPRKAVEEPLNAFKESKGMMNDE

T1: recombinant human Nectin-2-ECD/Fc fusion protein (human, UniProt Q92692 32-360)
T1 construct: extracellular domain; Bought reagent; not shown: Fc of the bought fusion protein
T1 sequence (looked up): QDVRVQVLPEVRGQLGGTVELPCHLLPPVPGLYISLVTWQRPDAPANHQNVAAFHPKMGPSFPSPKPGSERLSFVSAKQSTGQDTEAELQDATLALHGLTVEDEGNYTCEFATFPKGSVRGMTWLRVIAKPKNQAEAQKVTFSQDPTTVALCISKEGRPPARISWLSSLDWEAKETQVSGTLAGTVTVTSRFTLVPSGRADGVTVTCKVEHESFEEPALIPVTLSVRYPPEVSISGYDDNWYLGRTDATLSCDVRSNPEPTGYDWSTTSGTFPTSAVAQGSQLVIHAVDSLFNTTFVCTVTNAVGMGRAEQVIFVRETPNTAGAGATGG


Columns and labels:
[1] = target: T2, CD47 expressed on transfected cells (CD47 tf CHO-S cells) (human, UniProt Q08722); assay: flow cytometry on CD47 tf CHO-S cells, PE anti-human IgG Fc (FIG. 3B)
T2 construct: whole, on cells; also called CD47 tf cells

[2] = target: T3, PD-L1 expressed on transfected cells (PD-L1 tf CHO-S cells; PD-L1 tf OE19 cells; PD-L1 tf aAPC/CHO-K1 cells) (human); assay: flow cytometry on PD-L1 tf CHO-S cells, PE anti-human IgG Fc (FIG. 3A)
T3 construct: whole, on cells; The cell line of each entry is named under assay; also called PD-L1 tf cells

[3] = target: T1, recombinant human Nectin-2-ECD/Fc …; assay: ELISA; Nectin-2-ECD/Fc coated 1 ug/mL, biotinylated binder, HRP-avidin (FIG. 2B)
[4] = target: T4, recombinant PVR-ECD/Fc fusion protein (human, biotinylated (Biotin-PVR-ECD/Fc; sites not stated)); assay: ELISA; binder coated 1 ug/mL, serially diluted Biotin-PVR-ECD/Fc, HRP-avidin (FIG. 2A)
T4 construct: also called Biotin-PVR-ECD/Fc

binding result [1] | binding result [2] | binding result [3] | binding result [4] | Binder
binds | binds | binds | binds | TgPS-C2_v1 (Fc fusion, Two identical chains; Biotinylated in the Nectin-2 ELISA) DSPDRPWNPPTFSPALLVVTEGDNATFTCSFSNTSESFVLNWYRMSPSNQTDKLAAFPEDRSQPGQDCRFRVTQLPNGRDFHMSVVRARRNDSGTYLCGAISLAPKAQIKESLRAELRVTERRAEVPTAHPSPSPRPAGQFQTLVGSGGSGGSGGSGGSGMMTGTIETTGNISAEKGGSIILQCHLSSTTAQVTQVNWEQQDQLLAICNADLGWHISPSFKDRVAPGPGLGLTLQSLTVNDTGEYFCIYHTYPDGTYTGRIFLEVLESSVAEHGARASESKYGPPCPPCPAPEFLGGPSVFLFPPKPKDTLMISRTPEVTCVVVDVSQEDPEVQFNWYVDGVEVHNAKTKPREEQFNSTYRVVSVLTVLHQDWLNGKEYKCKVSNKGLPSSIEKTISKAKGQPREPQVYTLPPSQEEMTKNQVSLTCLVKGFYPSDIAVEWESNGQPENNYKTTPPVLDSDGSFFLYSRLTVDKSRWQEGNVFSCSVMHEALHNHYTQKSLSLSLGKAAASSGGGGSGGGGSEE[about 120 residues not shown]
 | binds |  |  | PD-1/G4Fc (Fc fusion, PD-1 extracellular domain fused to an IgG4 Fc; also called Biotin-PD-1/G4Fc) DSPDRPWNPPTFSPALLVVTEGDNATFTCSFSNTSESFVLNWYRMSPSNQTDKLAAFPEDRSQPGQDCRFRVTQLPNGRDFHMSVVRARRNDSGTYLCGAISLAPKAQIKESLRAELRVTERRAEVPTAHPSPSPRPAGQFQTLVESKYGPPCPPCPAPEFLGGPSVFLFPPKPKDTLMISRTPEVTCVVVDVSQEDPEVQFNWYVDGVEVHNAKTKPREEQFNSTYRVVSVLTVLHQDWLNGKEYKCKVSNKGLPSSIEKTISKAKGQPREPQVYTLPPSQEEMTKNQVSLTCLVKGFYPSDIAVEWESNGQPENNYKTTPPVLDSDGSFFLYSRLTVDKSRWQEGNVFSCSVMHEALHNHYTQKSLSLSLG
binds | binds |  | binds | TgPS-C1_v1 (Fc fusion, Two identical chains; Expressed in CHO-S cells; Biotinylated in the Nectin-2 ELISA) DSPDRPWNPPTFSPALLVVTEGDNATFTCSFSNTSESFVLNWYRMSPSNQTDKLAAFPEDRSQPGQDCRFRVTQLPNGRDFHMSVVRARRNDSGTYLCGAISLAPKAQIKESLRAELRVTERRAEVPTAHPSPSPRPAGQFQTLVGSGGSGGSGGSGGSGMMTGTIETTGNISAEKGGSIILQCHLSSTTAQVTQVNWEQQDQLLAICNADLGWHISPSFKDRVAPGPGLGLTLQSLTVNDTGEYFCIYHTYPDGTYTGRIFLEVLESSVAEHGARAS[human IgG1 Fc with changes not shown]AAASSGGGGSGGGGSEE[about 120 residues not shown]

Further lines, the binder ahead of its results:

Binder | binding result [1] | binding result [2] | binding result [3] | binding result [4]
TgPS-E_v1 (Fc fusion, Two identical chains; Biotinylated in the Nectin-2 ELISA) MMTGTIETTGNISAEKGGSIILQCHLSSTTAQVTQVNWEQQDQLLAICNADLGWHISPSFKDRVAPGPGLGLTLQSLTVNDTGEYFCIYHTYPDGTYTGRIFLEVLESSVAEHGARASESKYGPPCPPCPAPEFLGGPSVFLFPPKPKDTLMISRTPEVTCVVVDVSQEDPEVQFNWYVDGVEVHNAKTKPREEQFNSTYRVVSVLTVLHQDWLNGKEYKCKVSNKGLPSSIEKTISKAKGQPREPQVYTLPPSQEEMTKNQVSLTCLVKGFYPSDIAVEWESNGQPENNYKTTPPVLDSDGSFFLYSRLTVDKSRWQEGNVFSCSVMHEALHNHYTQKSLSLSLGKAAASSGGGGSGGGGSEE[about 120 residues not shown]KPSGSGGSGGSGGSGGSGDSPDRPWNPPTFSPALLVVTEGDNATFTCSFSNTSESFVLNWYRMSPSNQTDKLAAFPEDRSQPGQDCRFRVTQLPNGRDFHMSVVRARRNDSGTYLCGAISLAPKAQIKESLRAELRVTERRAEVPTAHPSPSPRPAGQFQTLV | binds | binds | binds | binds
TgPS-D_v1 (Fc fusion, Two identical chains; Biotinylated in the Nectin-2 ELISA) MMTGTIETTGNISAEKGGSIILQCHLSSTTAQVTQVNWEQQDQLLAICNADLGWHISPSFKDRVAPGPGLGLTLQSLTVNDTGEYFCIYHTYPDGTYTGRIFLEVLESSVAEHGARGSGGSGGSGGSGGSGDSPDRPWNPPTFSPALLVVTEGDNATFTCSFSNTSESFVLNWYRMSPSNQTDKLAAFPEDRSQPGQDCRFRVTQLPNGRDFHMSVVRARRNDSGTYLCGAISLAPKAQIKESLRAELRVTERRAEVPTAHPSPSPRPAGQFQTLVASESKYGPPCPPCPAPEFLGGPSVFLFPPKPKDTLMISRTPEVTCVVVDVSQEDPEVQFNWYVDGVEVHNAKTKPREEQFNSTYRVVSVLTVLHQDWLNGKEYKCKVSNKGLPSSIEKTISKAKGQPREPQVYTLPPSQEEMTKNQVSLTCLVKGFYPSDIAVEWESNGQPENNYKTTPPVLDSDGSFFLYSRLTVDKSRWQEGNVFSCSVMHEALHNHYTQKSLSLSLGKAAASSGGGGSGGGGSEE[about 120 residues not shown] | binds | binds | binds | binds
TgPS-F_v1 (Fc fusion, Two identical chains; Biotinylated in the Nectin-2 ELISA) DSPDRPWNPPTFSPALLVVTEGDNATFTCSFSNTSESFVLNWYRMSPSNQTDKLAAFPEDRSQPGQDCRFRVTQLPNGRDFHMSVVRARRNDSGTYLCGAISLAPKAQIKESLRAELRVTERRAEVPTAHPSPSPRPAGQFQTLVGSGGSGGSGGSGGSGEE[about 120 residues not shown]KPSASESKYGPPCPPCPAPEFLGGPSVFLFPPKPKDTLMISRTPEVTCVVVDVSQEDPEVQFNWYVDGVEVHNAKTKPREEQFNSTYRVVSVLTVLHQDWLNGKEYKCKVSNKGLPSSIEKTISKAKGQPREPQVYTLPPSQEEMTKNQVSLTCLVKGFYPSDIAVEWESNGQPENNYKTTPPVLDSDGSFFLYSRLTVDKSRWQEGNVFSCSVMHEALHNHYTQKSLSLSLGKAAASSGGGGSGGGGSMMTGTIETTGNISAEKGGSIILQCHLSSTTAQVTQVNWEQQDQLLAICNADLGWHISPSFKDRVAPGPGLGLTLQSLTVNDTGEYFCIYHTYPDGTYTGRIFLEVLESSVAEHGAR | binds | binds | binds | binds
